# Cyclic peptide permeability, from CycPeptMPDB

Collected by the curators of CycPeptMPDB (Li et al. 2023) from Townsend et al. 2020, doi:10.26434/chemrxiv.13335941.v1.

PAMPA is the parallel artificial membrane permeability assay, which has no cells and reads passive diffusion. Permeability is in 10^-6 cm/s, converted from the database's log10 values; higher is more permeable.

- CC(C)C[C@@H]1NC(=O)[C@@H](CC(C)C)NC(=O)[C@@H](C)NC(=O)[C@H]2CCCN2C(=O)[C@H](Cc2ccccc2)NC(=O)CN(Cc2ccccc2)C(=O)[C@H]2CCCN2C1=O: PAMPA 0.91 × 10^-6 cm/s
- CC(C)C[C@H]1C(=O)N(C)[C@@H](CC(C)C)C(=O)N2CCC[C@H]2C(=O)N(Cc2ccccc2)CC(=O)N[C@@H](Cc2ccccc2)C(=O)N2CCC[C@@H]2C(=O)N(C)[C@H](C)C(=O)N1C: PAMPA 5.1 × 10^-6 cm/s
- CC(C)C[C@@H]1C(=O)N2CCC[C@H]2C(=O)N(C)[C@@H](CC(C)C)C(=O)N[C@@H](Cc2ccccc2)C(=O)N2CCC[C@@H]2C(=O)N(C)[C@@H](C)C(=O)N(C)[C@@H](CC(C)C)C(=O)N1C: PAMPA 13 × 10^-6 cm/s
- CC(C)C[C@@H]1C(=O)N2CCC[C@@H]2C(=O)N(C)[C@@H](CC(C)C)C(=O)N[C@@H](Cc2ccccc2)C(=O)N[C@@H](C)C(=O)N[C@H](CC(C)C)C(=O)N1C: PAMPA 2.2 × 10^-6 cm/s
- CC(C)C[C@@H]1NC(=O)[C@@H](C)N(C)C(=O)[C@@H]2CCCN2C(=O)[C@H](Cc2ccccc2)NC(=O)CN(Cc2ccccc2)C(=O)[C@H]2CCCN2C(=O)C[C@H](Cc2ccccc2)NC1=O: PAMPA 1.5 × 10^-6 cm/s
- CCCN1CC(=O)N(C)[C@H](CC(C)C)C(=O)N[C@@H](CC(C)C)C(=O)N2CCC[C@H]2C(=O)N[C@H](CC(C)C)C(=O)N[C@@H](Cc2ccccc2)C1=O: PAMPA 12 × 10^-6 cm/s
- CC(C)C[C@@H]1C(=O)N(C)[C@@H](CC(C)C)C(=O)N2CCC[C@H]2C(=O)N(C)[C@H](CC(C)C)C(=O)N[C@@H](Cc2ccccc2)C(=O)N2CCC[C@@H]2C(=O)N[C@H](C)C(=O)N1C: PAMPA 7.4 × 10^-6 cm/s
- CC(C)C[C@@H]1C(=O)N(C)[C@@H](CC(C)C)C(=O)N2CCC[C@H]2C(=O)N(Cc2ccccc2)CC(=O)N[C@@H](Cc2ccccc2)C(=O)N2CCC[C@@H]2C(=O)N[C@H](C)C(=O)N1C: PAMPA 1.6 × 10^-6 cm/s
- CC(C)C[C@@H]1C(=O)N(C)[C@@H](CC(C)C)C(=O)N2CCC[C@H]2C(=O)N(Cc2ccccc2)CC(=O)N[C@@H](Cc2ccccc2)C(=O)N2CCC[C@@H]2C(=O)N(C)[C@@H](C)C(=O)N1C: PAMPA 5.4 × 10^-6 cm/s
- CC(C)C[C@@H]1C(=O)N2CCC[C@H]2C(=O)N(Cc2ccccc2)CC(=O)N[C@@H](Cc2ccccc2)C(=O)N2CCC[C@@H]2C(=O)N[C@@H](Cc2ccccc2)CC(=O)N[C@H](CC(C)C)C(=O)N1C: PAMPA 2.1 × 10^-6 cm/s
- CC(C)C[C@@H]1NC(=O)[C@H](CC(C)C)N(C)C(=O)[C@H](C)N(C)C(=O)[C@H](Cc2ccccc2)NC(=O)[C@@H](CC(C)C)NC(=O)[C@H]2CCCN2C1=O: PAMPA 4.6 × 10^-6 cm/s
- CC(C)C[C@@H]1NC(=O)[C@H]2CCCN2C(=O)C[C@H](Cc2ccccc2)NC(=O)[C@@H](CC(C)C)NC(=O)C[C@H](Cc2ccccc2)NC(=O)[C@@H]2CCCN2C(=O)[C@H](Cc2ccccc2)NC1=O: PAMPA 2.7 × 10^-6 cm/s
- CCCN1CC(=O)N(C)[C@@H](CC(C)C)C(=O)N(C)[C@H](CC(C)C)C(=O)N2CCC[C@H]2C(=O)N(Cc2ccccc2)CC(=O)N[C@@H](Cc2ccccc2)C1=O: PAMPA 8.1 × 10^-6 cm/s
- CC(C)C[C@@H]1NC(=O)[C@@H]2CCCN2C(=O)[C@H](CC(C)C)N(C)C(=O)[C@H](CC(C)C)NC(=O)C[C@H](Cc2ccccc2)NC(=O)[C@@H]2CCCN2C(=O)[C@H](Cc2ccccc2)NC1=O: PAMPA 0.5 × 10^-6 cm/s
- CC(C)C[C@@H]1NC(=O)C[C@H](Cc2ccccc2)NC(=O)[C@H]2CCCN2C(=O)[C@H](Cc2ccccc2)NC(=O)CN(Cc2ccccc2)C(=O)[C@H]2CCCN2C(=O)[C@@H](CC(C)C)NC1=O: PAMPA 0.31 × 10^-6 cm/s
- CC(C)C[C@H]1NC(=O)[C@@H]2CCCN2C(=O)[C@@H](CC(C)C)NC(=O)[C@H](CC(C)C)N(C)C(=O)[C@H](C)NC(=O)[C@H](Cc2ccccc2)NC1=O: PAMPA 0.5 × 10^-6 cm/s
- CC(C)C[C@@H]1C(=O)N(C)[C@H](CC(C)C)C(=O)N2CCC[C@H]2C(=O)N(C)[C@H](CC(C)C)C(=O)N[C@@H](Cc2ccccc2)C(=O)N2CCC[C@@H]2C(=O)N[C@@H](C)C(=O)N1C: PAMPA 2.6 × 10^-6 cm/s

A selection of 2 entries from above:

{"smiles": "CC(C)C[C@@H]1C(=O)N2CCC[C@@H]2C(=O)N(C)[C@@H](CC(C)C)C(=O)N[C@@H](Cc2ccccc2)C(=O)N[C@@H](C)C(=O)N[C@H](CC(C)C)C(=O)N1C", "PAMPA (10^-6 cm/s)": "2.2"}
{"smiles": "CC(C)C[C@H]1C(=O)N(C)[C@@H](CC(C)C)C(=O)N2CCC[C@H]2C(=O)N(Cc2ccccc2)CC(=O)N[C@@H](Cc2ccccc2)C(=O)N2CCC[C@@H]2C(=O)N(C)[C@H](C)C(=O)N1C", "PAMPA (10^-6 cm/s)": "5.1"}

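Conditions beyond the assay type are not listed; see the original paper. Other peptides of the study may be missing here. Peptides that the database sets to -10, its floor, are left out.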